A short description of the data set: Solubility of indicator in polymonoguanadine fixer.

On to `O=S(=O)([O-])c1cc(Nc2nc(Nc3ccccc3)nc(N(CCO)CCO)n2)ccc1/C=C/c1ccc(Nc2nc(Nc3ccccc3)nc(N(CCO)CCO)n2)cc1S(=O)(=O)[O-].[Na+].[Na+]` [FluorescentBrightner28], for which the “Solubility @ 0.01 %” value (0.01% in 4 wt % polymonoguanadine fixer) is “No”. Also, under “0.1% in 4 wt % polymonoguanadine fixer”, the “Solubility @ 0.1%” value is “No”.
